The series can be described thus: Stability assay of DPP-4 inhibitors after incubation with cysteine (nonenzymatic). As to conditions: 100 μM inhibitor, L-cysteine 100 mM, potassium phosphate buffer pH 7.4, 37 °C, 2 h, no enzyme source.

For `N#C[C@@H]1CCCN1C(=O)CNC12CC3CC(CC(O)(C3)C1)C2` [Vildagliptin, vildagliptin], the “Stability in the presence of L-cysteine (peak area vs control without L-cysteine)” value is reported as “disappeared”.
